Laboratory results taken from ChEMBL document CHEMBL3885861, “Open TG-GATES”.

Species on record: Rattus norvegicus
Test: Open TG-GATES - Regimen: Single
Format: toxicity, organism-based, Sprague-Dawley
Set-up: regimen Single, gender Male, age 6 weeks
Details: in vivo, po, route gavage; for Hb / Ht / MCH / Plat: tissue Blood
[1] = 0 mg/kg, 3 h, dose level Control
[2] = 0 mg/kg, 3 h, tissue Plasma, dose level Control
[3] = 0 mg/kg, 6 h, dose level Control
[4] = 0 mg/kg, 6 h, tissue Plasma, dose level Control
[5] = 0 mg/kg, 9 h, dose level Control
[6] = 0 mg/kg, 9 h, tissue Plasma, dose level Control
[7] = 0 mg/kg, 24 h, dose level Control
[8] = 0 mg/kg, 24 h, tissue Plasma, dose level Control
[9] = 60 mg/kg, 3 h, tissue Plasma, dose level Low
[10] = 60 mg/kg, 6 h, tissue Plasma, dose level Low
[11] = 60 mg/kg, 9 h, tissue Plasma, dose level Low
[12] = 60 mg/kg, 24 h, tissue Plasma, dose level Low
[13] = 200 mg/kg, 3 h, dose level Middle
[14] = 200 mg/kg, 3 h, tissue Plasma, dose level Middle
[15] = 200 mg/kg, 6 h, dose level Middle
[16] = 200 mg/kg, 6 h, tissue Plasma, dose level Middle
[17] = 200 mg/kg, 9 h, dose level Middle
[18] = 200 mg/kg, 9 h, tissue Plasma, dose level Middle
[19] = 200 mg/kg, 24 h, dose level Middle
[20] = 200 mg/kg, 24 h, tissue Plasma, dose level Middle
[21] = 600 mg/kg, 3 h, dose level High
[22] = 600 mg/kg, 3 h, tissue Plasma, dose level High
[23] = 600 mg/kg, 6 h, dose level High
[24] = 600 mg/kg, 6 h, tissue Plasma, dose level High
[25] = 600 mg/kg, 9 h, dose level High
[26] = 600 mg/kg, 9 h, tissue Plasma, dose level High
[27] = 600 mg/kg, 24 h, dose level High
[28] = 600 mg/kg, 24 h, tissue Plasma, dose level High

Structure (SMILES): CS(=O)(=O)O.Cc1ccc(NC(=O)c2ccc(CN3CCN(C)CC3)cc2)cc1Nc1nccc(-c2cccnc2)n1 [IMATINIB MESYLATE]
- TERMINAL_BW [1]: 202.9 g
- Hb [1]: 12.7 g/dL
- Ht [1]: 38.9%
- MCH [1]: 21 pg
- Plat [1]: 110.9 x10_4/uL
- ALT [2]: 42.4 IU/L
- BUN [2]: 14.8 mg/dL
- Ca [2]: 10.8 mg/dL
- TG [2]: 90.1 mg/dL
- TERMINAL_BW [3]: 196.3 g
- Hb [3]: 12.9 g/dL
- Ht [3]: 38.9%
- MCH [3]: 20.9 pg
- Plat [3]: 120.5 x10_4/uL
- ALT [4]: 38 IU/L
- BUN [4]: 11 mg/dL
- Ca [4]: 10.8 mg/dL
- LDH [4]: 201 IU/L
- TG [4]: 56.4 mg/dL
- TERMINAL_BW [5]: 195.3 g
- Hb [5]: 12.8 g/dL
- Ht [5]: 38.4%
- MCH [5]: 20.8 pg
- Plat [5]: 123 x10_4/uL
- ALT [6]: 39 IU/L
- BUN [6]: 10.8 mg/dL
- Ca [6]: 10.7 mg/dL
- TG [6]: 48.2 mg/dL
- TERMINAL_BW [7]: 207.7 g
- Hb [7]: 13.1 g/dL
- Ht [7]: 39.8%
- MCH [7]: 21.6 pg
- Plat [7]: 119.2 x10_4/uL
- ALT [8]: 38 IU/L
- BUN [8]: 17.3 mg/dL
- Ca [8]: 10.9 mg/dL
- TG [8]: 132.6 mg/dL
- TERMINAL_BW (60 mg/kg, 3 h, dose level Low): 201.4 g
- Hb (60 mg/kg, 3 h, dose level Low): 12.4 g/dL
- Ht (60 mg/kg, 3 h, dose level Low): 38%
- MCH (60 mg/kg, 3 h, dose level Low): 20.6 pg
- Plat (60 mg/kg, 3 h, dose level Low): 113.9 x10_4/uL
- ALT [9]: 39.6 IU/L
- BUN [9]: 13.4 mg/dL
- TG [9]: 66.7 mg/dL
- TERMINAL_BW (60 mg/kg, 6 h, dose level Low): 198.5 g
- Hb (60 mg/kg, 6 h, dose level Low): 12.9 g/dL
- Ht (60 mg/kg, 6 h, dose level Low): 39.2%
- MCH (60 mg/kg, 6 h, dose level Low): 20.8 pg
- Plat (60 mg/kg, 6 h, dose level Low): 116.8 x10_4/uL
- ALT [10]: 39.8 IU/L
- BUN [10]: 9.6 mg/dL
- TG [10]: 82.7 mg/dL
- TERMINAL_BW (60 mg/kg, 9 h, dose level Low): 196.4 g
- Hb (60 mg/kg, 9 h, dose level Low): 12.8 g/dL
- Ht (60 mg/kg, 9 h, dose level Low): 38.8%
- MCH (60 mg/kg, 9 h, dose level Low): 20.9 pg
- Plat (60 mg/kg, 9 h, dose level Low): 111.6 x10_4/uL
- ALT [11]: 37 IU/L
- BUN [11]: 9.7 mg/dL
- Ca [11]: 10.5 mg/dL
- TG [11]: 75.7 mg/dL
- TERMINAL_BW (60 mg/kg, 24 h, dose level Low): 211.5 g
- Hb (60 mg/kg, 24 h, dose level Low): 12.6 g/dL
- Ht (60 mg/kg, 24 h, dose level Low): 38%
- MCH (60 mg/kg, 24 h, dose level Low): 21.4 pg
- Plat (60 mg/kg, 24 h, dose level Low): 120.9 x10_4/uL
- ALT [12]: 47.2 IU/L
- BUN [12]: 15.2 mg/dL
- Ca [12]: 10.7 mg/dL
- TG [12]: 119.2 mg/dL
- TERMINAL_BW [13]: 199.7 g
- Hb [13]: 12.3 g/dL
- Ht [13]: 37.9%
- MCH [13]: 20.5 pg
- Plat [13]: 118.1 x10_4/uL
- ALT [14]: 47.4 IU/L
- BUN [14]: 12.6 mg/dL
- Ca [14]: 10 mg/dL
- TG [14]: 50.4 mg/dL
- TERMINAL_BW [15]: 201.3 g
- Hb [15]: 12.5 g/dL
- Ht [15]: 38.1%
- MCH [15]: 20.6 pg
- Plat [15]: 131.4 x10_4/uL
- ALT [16]: 44 IU/L
- BUN [16]: 9.3 mg/dL
- Ca [16]: 10.1 mg/dL
- TG [16]: 63.2 mg/dL
- TERMINAL_BW [17]: 198.3 g
- Hb [17]: 12 g/dL
- Ht [17]: 36.2%
- MCH [17]: 21.2 pg
- Plat [17]: 128.8 x10_4/uL
- ALT [18]: 45.2 IU/L
- BUN [18]: 8.5 mg/dL
- TG [18]: 58.9 mg/dL
- TERMINAL_BW [19]: 206.3 g
- Hb [19]: 12.3 g/dL
- Ht [19]: 37.3%
- MCH [19]: 21.1 pg
- Plat [19]: 119 x10_4/uL
- ALT [20]: 52.4 IU/L
- BUN [20]: 13.6 mg/dL
- TG [20]: 96 mg/dL
- TERMINAL_BW [21]: 204.1 g
- Hb [21]: 12.3 g/dL
- Ht [21]: 37.7%
- MCH [21]: 20.7 pg
- Plat [21]: 116 x10_4/uL
- ALT [22]: 51.8 IU/L
- BUN [22]: 13.9 mg/dL
- TG [22]: 67.1 mg/dL
- TERMINAL_BW [23]: 200.7 g
- Hb [23]: 12.4 g/dL
- Ht [23]: 37.4%
- MCH [23]: 21 pg
- Plat [23]: 119.4 x10_4/uL
- ALT [24]: 47.8 IU/L
- BUN [24]: 10.9 mg/dL
- Ca [24]: 10 mg/dL
- TG [24]: 65.8 mg/dL
- TERMINAL_BW [25]: 200.2 g
- Hb [25]: 12.3 g/dL
- Ht [25]: 37.7%
- MCH [25]: 20.7 pg
- Plat [25]: 112.6 x10_4/uL
- ALT [26]: 50 IU/L
- BUN [26]: 9 mg/dL
- Ca [26]: 10 mg/dL
- TG [26]: 55.3 mg/dL
- TERMINAL_BW [27]: 204.9 g
- Hb [27]: 12.1 g/dL
- Ht [27]: 36.5%
- MCH [27]: 20.7 pg
- Plat [27]: 122.8 x10_4/uL
- ALT [28]: 52.6 IU/L
- BUN [28]: 12.1 mg/dL
- Ca [28]: 10 mg/dL
- TG [28]: 70.4 mg/dL
